Reference: patent US20240270695A1, “COMPOUNDS, COMPOSITIONS AND METHODS OF TREATING DISORDERS” (Chengdu Anticancer Bioscience LTD, priority 2021, published 2024)

Tested on: RPE-Neo or RPE-MYC or RPE-MYC expressing an EGFP-Histone 2B fusion protein
Test: Phenotypic screening assay (arrest in mitosis, change in DNA content, cell death; GE IN-Cell Analyzer 2000)
Assay type: cell-based, Human
Conditions: min. effective conc.; compounds 20 nM to 20 μM; 24, 48 or 72 hours

## CNC(=O)C1=C(O)c2ccccc2N(Cc2ccccc2)C(=O)C1 [Example 72, 1-benzyl-5-hydroxy-N-methyl-2-oxo-2,3-dihydro-1H-benzo[b]azepine-4-carboxamide]
  Cell Death (>30%): D (greater than 30.0 μM and less than 1000 μM)

## COC(=O)C1=C(O)c2ccccc2N(Cc2ccccc2)C(=O)C1 [Example 1, Methyl 1-benzyl-5-hydroxy-2-oxo-2,3-dihydro-1H-benzo[b]azepine-4-carboxylate]
  Cell Death (>30%): D (greater than 30.0 μM and less than 1000 μM)
